Apparent affinities of Ab-14 variants for a coronavirus HR2 peptide

Target peptide (SARS-CoV-2 spike, HR2 region): PDVDLGDISGINAS

Each scFv is VH, three GGGGS repeats, VL, as in the parent Ab-14, and differs from it in the CDRs of the heavy chain only.
VH: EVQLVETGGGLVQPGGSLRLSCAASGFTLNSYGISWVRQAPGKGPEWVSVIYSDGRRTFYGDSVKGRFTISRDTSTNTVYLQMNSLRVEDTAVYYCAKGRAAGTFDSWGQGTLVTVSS
VL: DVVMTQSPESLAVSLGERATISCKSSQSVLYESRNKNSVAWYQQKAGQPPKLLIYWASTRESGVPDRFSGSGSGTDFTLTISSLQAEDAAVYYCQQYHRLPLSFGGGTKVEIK

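The parent was found by panning a naive human phage display library on the peptide. These sequences belong to a second round, designed from the earlier measurements on random variants of the parent. Group labels follow the data file (Ctrl: baseline library sampled from a position-specific scoring matrix, with some repeated check sequences; Rand: our label for a block that the file lists under HC and that is probably the random mutants of the ten best first-round binders; En: ensemble of fine-tuned language models; GP: Gaussian process model; GPLM: also part of the Gaussian process libraries; HC: hill climbing; Gen: genetic algorithm; Gibbs: Gibbs sampling; a sequence that several methods proposed may carry one label only). In AlphaSeq, yeast of one mating type display the scFv and yeast of the other type display the target. Pairs that bind mate more often; barcode pairs of the diploids are counted by sequencing. Each replicate has its own calibration line, from reference interactions of the BCL2 family. Each pool was mated in six replicate cultures.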

The parent's heavy chain CDRs are GFTLNSYGIS, VIYSDGRRTFYGDSVK, GRAAGTFDS; each variant's own CDRs replace them letter for letter.
Values are apparent Kd, the geometric mean of the replicates that gave a signal; lower means stronger binding.
"not detected" means that the variant was in the library but no mating with the target was seen in any replicate; the authors take this as a sign of poor binding, and no number exists.
Entries are sorted by rising average, undetected variants last.
Values of this round are not directly comparable with the first-round values of the same sequences.
Of ten entries with the parent sequence, four were seen in most replicates (averages 2.2 nM to 240 nM), three in one and three in none, so single entries are noisy.
In the paper, a design with two or fewer of six values counts as a poor binder.
As a blank, each scFv also met three strains without target: over all heavy chain designs, 1% of these pairings were detected, typically at 120 nM and seldom below 7.0 nM.
Where one sequence has several entries in the source, the replicates are pooled.

CDR-H1 | CDR-H2 | CDR-H3 | group | apparent Kd | seen in
GFDLNEYGIS | VIYADGQRKAYADSVK | GNNAGTFDV | En_Gen | 78 pM | 6 of 6
GFDLNEYGIS | VIYADGVRTYYADSVK | GENAGTFDI | En_Gen | 130 pM | 6 of 6
GFDLNEYGIS | VIYADGRRTFYADSVK | GETAGTFLS | En_HC | 170 pM | 6 of 6
GFDLNEYGIS | VIYADGQRTFYADSVK | GQIAGTFDQ | En_HC | 170 pM | 6 of 6
GFDLDEYGIS | VIYADGMRTFYADSVK | GENAGTFDL | En_Gen | 190 pM | 6 of 6
GFDLNEYGIS | VIYADGRRTAYVDSVK | GQVAGTFDS | En_HC | 230 pM | 6 of 6
GFDLDEYGIS | VIYADGVRTAYSDSVK | GNVAGTFDI | En_Gen | 230 pM | 6 of 6
GFSLNSYGIS | VIYSDGRRTAYGDSVK | GRAAGTFDA | GPLM_Gibbs | 260 pM | 5 of 6
GFDLNEYGIS | VIYADGKRTYYADSVK | GGNAGTFDV | En_Gen | 300 pM | 6 of 6
GFDLNEYGIS | VIYADGKRTAYIDNVK | GNVAGTFDV | En_Gen | 380 pM | 6 of 6
GFDLDEYGIS | VIYADGQRTVYADSVK | GQNAGTFDV | En_Gen | 390 pM | 6 of 6
GFDLNEYGIS | VIYADGQRTAYTDSVK | GNQAGTFDI | En_Gen | 460 pM | 6 of 6
GFDLNEYGIS | VIYADGIRTAYADSVK | GNTAGTFDV | En_Gen | 500 pM | 6 of 6
GFDLNSYGIS | VIYSDGRRTFYSDSVK | GQAAGTFDA | GP_Gen | 500 pM | 6 of 6
GFKLNSYGIS | VIYSDGRRTFYSDSVK | GQEAGTFDS | GP_Gibbs | 510 pM | 6 of 6
GFDLDEYGIS | VIYADGKRTAYADKVK | GNNAGTFDV | En_Gen | 570 pM | 6 of 6
GFDLNEYGIS | VIYSDGMRTFYGDSVK | GRTAGTFDS | GP_Gen | 610 pM | 6 of 6
GFDLNEYGIS | VIYADGVRKFYADSVK | GENAGTFDV | En_HC | 620 pM | 6 of 6
GFDLDEYGIS | VIYADGMRTFYADSVK | GENAGTFDA | En_HC | 720 pM | 6 of 6
GFELNDYGIS | VIYSDGRRTFYTDSVK | GRAAGTFDS | Ctrl+GP_HC | 740 pM | 12 of 12
GFDLNEYGIS | VIYADGMRTSYADDVK | GENAGTFDV | En_Gen | 740 pM | 6 of 6
GFSLNSYGIS | VIYSDGRRTFYGDSVK | GNAAGTFDL | GP_Gen | 1.5 nM | 6 of 6
GFTLNSYGIS | VIYSDGRRTFYGDSVK | GQEAGTFDT | GPLM_Gen | 1.6 nM | 6 of 6
GFELNDYGIS | VIYSDGRRTFYGDSVK | GRAAGTFDS | Ctrl | 1.9 nM | 6 of 6
GFTLDTYGIS | VIYSDGRRTFYGDKVK | GSAAGTFPS | Ctrl | 2.3 nM | 6 of 6
GFTLDSYGIS | VIYSDGRRTFYADAVK | GRTAGTFDS | GPLM_Gen | 2.8 nM | 6 of 6
KFTLNSYGIS | VIYSDGRRTFYTDSVK | GRAAGTFDS | Ctrl | 5.8 nM | 6 of 6
GFTVNSYGIS | VIYSDGQRTFYGDSVK | GRVAGTFKS | Ctrl | 11 nM | 6 of 6
GFTLNSYGIS | VIYSDGIRTFYGDSVK | GDAAGTFDS | Ctrl | 12 nM | 6 of 6
GFSLNEYGIS | VIYSDGRRTFYCDSVK | GRAAVTFDS | GP_HC | 12 nM | 1 of 6
GFTLNSYGIS | VIYSDGWRTFYADSVK | GEEAGTFKS | Ctrl | 13 nM | 3 of 6
GFTLNSYGIS | VIYSDGRRTFYSDSVK | GKVGGTFDS | GPLM_HC | 16 nM | 5 of 6
GFDLNSYGIS | VIYSDGRRTFYSDSVK | GDAAGTFDD | GP_Gibbs | 17 nM | 5 of 6
GFDLNSYGIS | VIYSDGRRTFYADSVK | GDAAGTFDS | GPLM_Gen | 20 nM | 6 of 6
GFWLNEYGIS | VIYSDGRRTFYGDSVK | GRTAGTFDR | GP_Gen | 20 nM | 2 of 6
GFTLESYGIS | VIYSDGRRTFYKDSVK | GQAAGTFDS | GPLM_Gibbs | 22 nM | 3 of 6
GFTLQSYGIS | VIYSDGRRIFYGDSVK | GRAAGTALS | Rand | 24 nM | 1 of 6
GFTLNMYGIS | VIYSDGRRTFYSDSVK | GQDAGTFDS | GP_HC | 26 nM | 1 of 6
GFDLNSYGIS | VIYSDGRRTAYGDSVK | GRAAGTFVS | GPLM_HC | 27 nM | 1 of 6
GTNLDSYGIS | VIYADGRRTFYVDSVK | GRAGGTFDS | Ctrl | 28 nM | 6 of 6
GFTLNSYGIS | VIYSDGIRTFYKDSVK | GRAAGTFDV | Ctrl | 33 nM | 1 of 6
KFTLNSYGIS | VIYSDGRRTFYGDSVK | GQLAGTFDS | GPLM_HC | 35 nM | 1 of 6
GFRLNSYGIS | VIYSDGRRTFYIDSVK | GRAAGTFDS | Ctrl | 42 nM | 1 of 6
GFRLNSYGIS | VIYSDGRRTFYDDSVK | GKLAGTFDS | GP_HC | 46 nM | 1 of 6
WFDLNSYGIS | VIYSDGRRTFYADSVK | GNAAGTFDS | GP_Gen | 50 nM | 6 of 6
GFTLNSYGIS | VIYADGRRTFYGDSVK | GTAAGTFKF | GP_HC | 71 nM | 2 of 6
GFDLEKYGIS | VIYADGIRMSYADNVK | GVYSGTDYV | En_Gibbs | 90 nM | 1 of 6
GFTLNEYGIS | VIYSDGRRTFYDDSVK | GRAGGTFDS | GP_HC | 110 nM | 5 of 6
GFHLNSYGIS | VIYSDGKRTFYVDSVK | GRTAGTFDS | GP_Gibbs | 110 nM | 3 of 6
GFTLNSYGIS | VIYSDGRRTFYGDSVK | GKTAGTFDK | GP_Gen | 180 nM | 2 of 6
GFDLNSYGIS | VIYSDGKRTFYDDSVK | GKAAGTFDS | GP_Gen | 1.1 µM | 1 of 6
GFTINSYGIS | VIYSDGRRTFYGDSVR | GRAAGTFVS | Ctrl | 1.7 µM | 2 of 6
GFTLNSYGIS | VIYSDGRRTFYGDSVK | GFTAGTPDS | Ctrl | not detected | 0 of 6
GFDMNSYGIS | VIYSDGRRTFYTDSVK | GRAYGTFWS | Ctrl | not detected | 0 of 6
GYTINSYGIS | VIYSDGRRTFYGDSVK | GRCAGTWDS | Ctrl | not detected | 0 of 6
GFDLNSYGIS | VIYSDGQRTFYGDSVK | GQTAGTFDS | GP_Gen | not detected | 0 of 6
GFDLNSYGIS | VIYSDGRMTFYISSVK | GRAAGWFNM | Rand | not detected | 0 of 6
GFTLNTYGIS | VIYSDGRRTFYGDSVK | GRAAGTFPS | Ctrl | not detected | 0 of 6
GFTLNDYGTS | VIYSDGRRTQYIDSVK | GRRAGTFDS | Rand | not detected | 0 of 6
GYDINEYGIS | VIYADGQRTSYVQSVK | GAGDITGLV | En_Gibbs | not detected | 0 of 6
GQNLDEYGIS | VIYADGMRKWYADDVK | GNMSAGLIA | En_Gibbs | not detected | 0 of 6
GFTLNSYGIS | VIYSDGRRTFYEDSVK | GRAAGHFDS | Ctrl | not detected | 0 of 6
GFTLNEYGIS | VNYSDGRRTFYGDSVK | VRAAVTFDQ | Rand | not detected | 0 of 6
GFDLNEMGIS | VIYADGRRVEYNDKVK | GNLTGTFDQ | En_Gibbs | not detected | 0 of 6
GFGIDDYGIS | VIYADGQRKMYQDNVK | GNVGSLFSV | En_Gibbs | not detected | 0 of 6
GFQLNSYGIS | VIYSDGRRTFYIDSVK | GRAAGTFDS | GPLM_Gen | not detected | 0 of 6
GQQLDEYGIS | VIYADGVRKSYVDSFK | GEITGTFSQ | En_Gibbs | not detected | 0 of 6
GFDINEYGIS | VIYADGMRKAYVQNVK | GENARSVQI | En_Gibbs | not detected | 0 of 6
GFGLESYGIS | VIYSDGRRTFYGDSVK | GTAAHTFDS | Ctrl | not detected | 0 of 6
GFTLDSYGIS | VIYSDGRRTFYGDSVK | MRAAGTALS | Rand | not detected | 0 of 6
GFSLNDYGIS | VIYSDGRRTFYGDSVK | GRAALTFDM | GP_HC | not detected | 0 of 6
GFDLGEYGVS | VIYADGHRAAYTDNVK | GVESGSVQN | En_Gibbs | not detected | 0 of 6
GFTLNSYGIS | VIYSDGRRTFYGDSVK | GRAAGTFDC | Ctrl | not detected | 0 of 6
GFQLDEYGIS | VIYADGSRTAYADSVK | GKYKFSLVV | En_Gibbs | not detected | 0 of 6
GFQLNEYGIS | VIYADGKRSEYADKVK | GGINSSFLV | En_Gibbs | not detected | 0 of 6
GATLNQYGIS | VIYSDGRRTFYGDSVV | GRAASDFDS | Ctrl | not detected | 0 of 6
GFDLNEYGIS | VIYADGSRTQYIDSVK | GEVAGTFDS | En_HC | not detected | 0 of 6
KFQLNAYGIS | VIYSDGRRTFYGDSVK | GRTAGTFDS | GP_Gibbs | not detected | 0 of 6

Repeated from above, the 10 best binders with a signal in all replicates:

CDR-H1 | CDR-H2 | CDR-H3 | group | apparent Kd | seen in
GFDLNEYGIS | VIYADGQRKAYADSVK | GNNAGTFDV | En_Gen | 78 pM | 6 of 6
GFDLNEYGIS | VIYADGVRTYYADSVK | GENAGTFDI | En_Gen | 130 pM | 6 of 6
GFDLNEYGIS | VIYADGRRTFYADSVK | GETAGTFLS | En_HC | 170 pM | 6 of 6
GFDLNEYGIS | VIYADGQRTFYADSVK | GQIAGTFDQ | En_HC | 170 pM | 6 of 6
GFDLDEYGIS | VIYADGMRTFYADSVK | GENAGTFDL | En_Gen | 190 pM | 6 of 6
GFDLNEYGIS | VIYADGRRTAYVDSVK | GQVAGTFDS | En_HC | 230 pM | 6 of 6
GFDLDEYGIS | VIYADGVRTAYSDSVK | GNVAGTFDI | En_Gen | 230 pM | 6 of 6
GFDLNEYGIS | VIYADGKRTYYADSVK | GGNAGTFDV | En_Gen | 300 pM | 6 of 6
GFDLNEYGIS | VIYADGKRTAYIDNVK | GNVAGTFDV | En_Gen | 380 pM | 6 of 6
GFDLDEYGIS | VIYADGQRTVYADSVK | GQNAGTFDV | En_Gen | 390 pM | 6 of 6

Source: Li et al. 2023 (doi:10.1038/s41467-023-39022-2), MIT Lincoln Laboratory and A-Alpha Bio; data file from the FLAb repository.